Assay results published in US20230003721A1, “MITOTHERAPEUTICS FOR THE TREATMENT OF BRAIN DISORDERS” (The University of Florida Research Foundation, Inc., priority 2019, published 2023).
Where a name gives a salt, the structure may show the parent alone.

Test system: Primary forebrain neurons dissociated from C57BL/6J mice
Test: Protection of ΔΨm (TMRM) against oxidative stress by Luperox
Type: cell-based, mouse
Conditions: for protection of ΔΨm (TMRM fluorescence) in peroxide challenged neurons / Luperox insult: 55 μM Luperox, 24 h; for Luperox insult / protection against both insults (increased oxidative stress and 3×TG): TMRM; for protection against both insults (increased oxidative stress and 3×TG): Luperox and 3×TG neurons

| Compound | protection of ΔΨm (TMRM fluorescence) in peroxide challenged neurons | Luperox insult | protection against both insults (increased oxidative stress and 3×TG) |
| --- | --- | --- | --- |
| CCCCOc1cc(C(=O)OCCN(CC)CC)ccc1N [benoxinate hydrochloride] | full protection | rescues | protect against both insults |
| CCCCOc1ccc(C(=O)CCN2CCCCC2)cc1 [DYCLONINE HYDROCHLORIDE] | full protection | rescues | protect against both insults |
| CN(C)CCC=C1c2ccccc2COc2ccccc21 [doxepin hydrochloride] | full protection | rescues | protect against both insults |
| O=c1c(-c2ccc(O)cc2)coc2cc(O)cc(O)c12 [GENISTEIN] | full protection | rescues | protect against both insults |
| COC(=O)[C@@H]1[C@H]2C[C@H]3c4[nH]c5ccccc5c4CCN3C[C@@H]2CC[C@@H]1O [YOHIMBINE HYDROCHLORIDE] | full protection | rescues | protect against both insults |
